Measured affinities in a library of Ab-14 light chain variants

Antigen: PDVDLGDISGINAS, a 14-residue peptide of the SARS-CoV-2 spike HR2 region.

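The starting antibody came from a phage panning campaign against this peptide. This is the validation round: designs drawn from the data on random variants, tested in the same kind of assay. Group labels follow the data file (Ctrl: baseline library sampled from a position-specific scoring matrix, with some repeated check sequences; GP: Gaussian process model; HC: hill climbing; Gen: genetic algorithm; Gibbs: Gibbs sampling; a sequence that several methods proposed may carry one label only). Affinity was read by AlphaSeq, a pooled yeast mating assay with surface-displayed partners. After mating in shaken culture at 30 °C for 16 h, diploids were selected and their barcode pairs sequenced. Each replicate has its own calibration line, from reference interactions of the BCL2 family. The assay was run in six technical replicates.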

The variants keep the heavy chain, the linker and the frameworks of Ab-14 (scFv order VH, the linker GGGGSGGGGSGGGGS, VL).
VH: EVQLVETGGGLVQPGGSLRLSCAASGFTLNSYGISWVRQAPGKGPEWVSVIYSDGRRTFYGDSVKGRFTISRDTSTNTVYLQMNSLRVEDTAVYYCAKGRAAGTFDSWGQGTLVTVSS
VL: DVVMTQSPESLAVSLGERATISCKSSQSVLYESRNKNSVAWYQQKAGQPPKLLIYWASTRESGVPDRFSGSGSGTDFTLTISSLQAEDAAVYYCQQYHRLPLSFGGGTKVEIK

Substitutions are numbered in sequence along the VL above, starting at 1 (not Kabat).
Variants here have at most six changes.
Values are apparent Kd, the geometric mean of the replicates that gave a signal; lower means stronger binding.
"no signal" marks a missing value. The strain was present, yet no cells mated with the target were sequenced in any replicate, which points to weak or no binding.
The authors' rule: three or more of the six replicates give a measured affinity, fewer mean a poor binder.
Background: pairings of all light chain designs with three empty control strains gave a value in 4% of cases (median 430 nM, 5th percentile 38 nM). Values in that range, when seen in few replicates, are hard to tell from nonspecific mating.
Of ten entries with the parent sequence, four were seen in most replicates (averages 2.2 nM to 240 nM), three in one and three in none, so single entries are noisy.
A sequence measured in both rounds can read differently, since the two assays cover different ranges.

S25L S26E V29T W56N E61M [GP_Gen]: 860 pM (6 of 6 replicates).
S25I S26Q R34L K36A W56E E61L [GP_Gibbs]: 6.0 nM (6 of 6 replicates).
S25L S26D W56N [GP_Gen]: 270 pM (6 of 6 replicates).
N35E W56G S62Y [Ctrl]: 4.0 nM (6 of 6 replicates).
S26Q Y31Q E61A Q96L H98S [Ctrl]: 89 nM (5 of 6 replicates).
S25L N35A W56E T59Q [GP_Gen]: 440 pM (6 of 6 replicates).
Q27G L30H [Ctrl]: 410 nM (5 of 6 replicates).
S25V Q27E W56D [GP_Gen]: 940 pM (6 of 6 replicates).
S25F S28W V29G N35T W56N [GP_HC]: 2.0 nM (6 of 6 replicates).
S26I Q27M S58R Q95G [Ctrl]: no signal (0 of 6 replicates).
S25V V29W W56N E61L [GP_Gen]: 1.1 nM (6 of 6 replicates).
S25L S26Y V29H W56N T59Y [GP_Gen]: 1.8 nM (6 of 6 replicates).
V29K L30P Y31I R34H S62H Q96A [Ctrl]: no signal (0 of 6 replicates).
Y31S R34D [Ctrl]: 4.6 nM (6 of 6 replicates).
R34T W56G [Ctrl]: 2.0 nM (6 of 6 replicates).
L30G Y31V R34M W56A [Ctrl]: 1.0 nM (6 of 6 replicates).
S25L V29E W56G Q96A [GP_HC]: 2.2 nM (6 of 6 replicates).
S25L S26E V29D W56E [GP_Gen]: 910 pM (6 of 6 replicates).
E32T W56G S103Y [Ctrl]: 14 nM (6 of 6 replicates).
V29W W56E T59L [GP_HC]: 760 pM (6 of 6 replicates).
S25M L30S W56S Y97V L100Y [Ctrl]: 24 nM (6 of 6 replicates).
S25F V29E W56N T59K [GP_Gen]: 920 pM (6 of 6 replicates).
S25L V29E L30P W56N E61M [GP_Gen]: 2.1 nM (6 of 6 replicates).
S25F N35V K36S W56N [GP_HC]: 760 pM (6 of 6 replicates).
S25L S26Q Q27M V29E Y31P S62T [GP_Gibbs]: 2.1 nM (6 of 6 replicates).
S25C S26M V29S L30D W56N S62V [GP_Gibbs]: 2.2 nM (6 of 6 replicates).
S25L S28E W56R [Ctrl]: 1.0 nM (6 of 6 replicates).
K24N S25L S26M W56H T59L S62D [GP_HC]: 1.1 nM (6 of 6 replicates).
Q27Y E32N R34T [Ctrl]: no signal (0 of 6 replicates).
S25L Q27M V29M W56N E61M [GP_Gen]: 1.5 nM (6 of 6 replicates).

The closing 2 entries, repeated:

| changes | group | Kd (apparent) | replicates with signal |
|---|---|---|---|
| Q27Y E32N R34T | Ctrl | no signal | 0/6 |
| S25L Q27M V29M W56N E61M | GP_Gen | 1.5 nM | 6/6 |

Source: Li et al. 2023 (doi:10.1038/s41467-023-39022-2), MIT Lincoln Laboratory and A-Alpha Bio; data file from the FLAb repository.